# Measured values as given in patent publication US20200109194A1.
# Chains of the proteins cited; added tags and fusions are not shown. Residues count along the entry.
# UniProt Q8IYR6, 40-380: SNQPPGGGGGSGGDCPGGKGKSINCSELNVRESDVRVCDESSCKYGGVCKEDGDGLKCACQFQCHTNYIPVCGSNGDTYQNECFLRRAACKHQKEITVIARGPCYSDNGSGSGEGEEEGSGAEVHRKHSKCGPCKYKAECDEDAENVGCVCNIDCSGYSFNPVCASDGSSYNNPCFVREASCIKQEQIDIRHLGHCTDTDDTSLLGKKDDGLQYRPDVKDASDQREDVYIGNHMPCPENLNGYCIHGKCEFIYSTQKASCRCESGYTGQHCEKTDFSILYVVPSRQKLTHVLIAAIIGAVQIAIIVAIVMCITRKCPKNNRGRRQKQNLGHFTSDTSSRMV
# Molecular target: full-length human TMEFF1 (M1-V380 plus Myc-DDK, plasmid BBP156) on the surface of HEK-293 cells (human) (UniProt Q8IYR6)
# Assay: cell-based or functional assay
substance,measurement,value
M3 conjugated to vcMMAE (antibody),"cell killing (CellTiter Glo, 72 hours)",40%
